Measurements reported in ChEMBL document CHEMBL1138063, “Imidazole-dioxolane compounds as isozyme-selective heme oxygenase inhibitors” (J Med Chem, 2006).

Organism: Rattus norvegicus
Test: Selectivity index, rat HO2/HO1

Clc1ccc(CCC2(Cn3ccnc3)OCCO2)cc1
Selectivity index: > 25
